Source: patent US20090074761A1, “Therapeutic beta-glucan combinations” (priority 2007, published 2009)

Tested on: SKOV-3 cells
Format: cell-based, human
Experimental: As described above, β-glucan functions with anti-tumor antibodies to activate complement receptor 3 (CR3) and recruit neutrophils that mediate CR3 (iC3b-receptor)-dependent cytotoxicity of tumors coated with iC3b. […] SKOV-3 cells were incubated with anti-VEGF mAb or anti-Her-2/neu mAb in the presence of human complement. Cells were then washed and co-cultured with human neutrophils (E:T ratio=20:1) in the presence of soluble β-glucan. Cytotoxicity was calculated as in Li et al., J Immunol 177:1661-1669. […] Anti-Her-2/neu mAb (trastuzumab) (B) was used as a positive control since SKOV-3 cells overexpress HER2/neu.

trastuzumab
synergy with β-glucan to elicit CR3-dependent cellular cytotoxicity (CR3-DCC): synergized with β-glucan
